{"source": "patent US11760741B2", "about": "“Pro-drugs of eliglustat” (KASHIV BIOSCIENCES, LLC, priority 2018, dated 2023)", "experiment": "Metabolic stability of prodrugs in human liver microsomes", "conditions": "NADPH, DPBS pH-7.4, LC-MS/MS", "data": [{"substance": "(1R,2R)-1-(2,3-dihydrobenzo[b][1,4]dioxin-6-yl)-2-octanamido-3-(pyrrolidin-1-yl)propyl diethyl phosphate", "values": [{"measurement": "HLM stability (half-life, minutes)", "result": "<30", "unit": "min"}]}]}
